Tests used:
CCR1 = molecular target: T1, CCR1 (Homo sapiens, UniProt P32246); assay: Chemokine receptor panel (assays similar to Example 1 and 2), CCR1; format: binding; conditions: read-out: Inhibition at 10 uM
T1 sequence (P32246 1-355): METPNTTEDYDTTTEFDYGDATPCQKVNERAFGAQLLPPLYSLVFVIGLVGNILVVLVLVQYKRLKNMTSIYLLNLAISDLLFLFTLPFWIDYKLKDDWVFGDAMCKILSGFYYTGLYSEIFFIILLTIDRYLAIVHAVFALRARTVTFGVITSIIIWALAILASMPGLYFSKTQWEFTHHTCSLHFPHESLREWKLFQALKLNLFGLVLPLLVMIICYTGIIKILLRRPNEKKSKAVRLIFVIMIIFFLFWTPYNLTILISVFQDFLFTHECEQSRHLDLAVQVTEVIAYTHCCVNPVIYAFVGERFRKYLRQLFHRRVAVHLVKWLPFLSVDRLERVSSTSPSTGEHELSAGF

Sequences of proteins named here, by UniProt entry; tags and fusion partners are left off. Residues count along the entry.
UniProt P32248, 25-378: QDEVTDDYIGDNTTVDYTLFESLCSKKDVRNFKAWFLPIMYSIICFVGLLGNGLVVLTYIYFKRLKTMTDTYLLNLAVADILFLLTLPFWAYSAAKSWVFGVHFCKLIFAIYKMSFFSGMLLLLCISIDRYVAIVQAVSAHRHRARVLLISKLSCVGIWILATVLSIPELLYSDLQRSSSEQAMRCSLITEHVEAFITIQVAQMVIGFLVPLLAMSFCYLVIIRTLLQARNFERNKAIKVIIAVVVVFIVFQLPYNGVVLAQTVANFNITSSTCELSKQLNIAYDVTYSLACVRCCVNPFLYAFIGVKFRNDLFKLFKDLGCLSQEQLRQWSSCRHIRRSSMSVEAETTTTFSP
UniProt P25025, whole entry: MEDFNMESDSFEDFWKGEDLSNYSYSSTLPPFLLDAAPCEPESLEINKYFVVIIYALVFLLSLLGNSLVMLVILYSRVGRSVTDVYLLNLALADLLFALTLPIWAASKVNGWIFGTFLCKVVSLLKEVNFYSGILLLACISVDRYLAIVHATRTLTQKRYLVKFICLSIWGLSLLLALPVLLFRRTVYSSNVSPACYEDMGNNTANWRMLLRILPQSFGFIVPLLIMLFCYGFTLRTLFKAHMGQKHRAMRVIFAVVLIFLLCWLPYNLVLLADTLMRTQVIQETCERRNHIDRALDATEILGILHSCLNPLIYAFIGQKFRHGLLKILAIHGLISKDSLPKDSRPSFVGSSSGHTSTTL
UniProt P51681, whole entry: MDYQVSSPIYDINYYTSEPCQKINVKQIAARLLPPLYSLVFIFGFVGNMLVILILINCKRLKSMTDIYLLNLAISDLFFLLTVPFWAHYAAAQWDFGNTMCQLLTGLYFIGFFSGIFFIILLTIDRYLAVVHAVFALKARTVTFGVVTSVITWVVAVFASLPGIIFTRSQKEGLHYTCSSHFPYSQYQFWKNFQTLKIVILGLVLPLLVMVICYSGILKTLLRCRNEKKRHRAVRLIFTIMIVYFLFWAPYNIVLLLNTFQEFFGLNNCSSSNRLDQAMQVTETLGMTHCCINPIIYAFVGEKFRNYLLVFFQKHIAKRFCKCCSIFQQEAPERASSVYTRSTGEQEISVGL

CX3CR1 = molecular target: T2, CX3CR1 (Homo sapiens, UniProt P49238); assay: biochemical
T2 sequence (P49238 1-355): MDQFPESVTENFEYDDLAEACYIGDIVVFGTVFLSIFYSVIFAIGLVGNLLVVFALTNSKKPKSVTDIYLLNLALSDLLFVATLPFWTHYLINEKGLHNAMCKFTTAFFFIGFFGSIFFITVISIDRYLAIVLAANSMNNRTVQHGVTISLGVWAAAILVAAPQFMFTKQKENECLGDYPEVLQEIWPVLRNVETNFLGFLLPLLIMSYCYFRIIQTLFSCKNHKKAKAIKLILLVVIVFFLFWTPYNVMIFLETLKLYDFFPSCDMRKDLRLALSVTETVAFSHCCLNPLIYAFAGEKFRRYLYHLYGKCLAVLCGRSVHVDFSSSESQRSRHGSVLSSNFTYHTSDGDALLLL

CCR7 = CCR7 (Homo sapiens, UniProt P32248); assay: biochemical
Description: (§1) Membranes (80 μL of 1×10^6 cell equivalents/mL) were then added, giving a total incubation volume of 100 μL per well. The plates were incubated for 2 hours at room temperature.
(§2) HEK 293 transfectants were seeded at 5×10^4 cells per well in 96 well poly-D lysine coated black with clear bottom plates (Becton Dickinson) and cultured for 16 h at 37° C. with an atmosphere of 5% CO2/95% air to form confluent monolayers. The following day cells were loaded with 5 μM Flura 3 AM diluted in tyrodes solution (137 mM NaCl, 10 mM HEPES, 0.441 mM KH2PO4, 2.67 mM KCl, 1.8 mM CaCL2, 1 mM MgCl2) with 6.25 mM probenecid at pH7.4, 100 μl per well and incubated at 37° C. with an atmosphere of 5% CO2/95% air for 1 h. After which the loading media was removed and the cells washed twice with PBS/HEPES solution (100 μl per well) then overlayed with 50 μl assay buffer (tyrodes buffer without probenecid). 50 μl inhibitor compound or 50 μl 0.2% (v/v) DMSO carrier diluted in assay buffer was then added per well and incubated for 30 minutes at room temperature before the addition of 50 μl 3 mM Carbachol per well. Calcium flux responses were measured using a Fluorometric Imaging Plate Reader (Molecular Devices) for 3 minutes before the addition of either IL-8 (50 μl, 1×10^−7-3×10^−11 M final concentration) or GROalpha. […] Fluorescence readings were taken every 2 seconds for a total run time of 6 minutes.

CXCR2 = CXCR2 (Homo sapiens, UniProt P25025); assay: biochemical
Description: as §1, §2

CCR4 = molecular target: T3, CCR4 (Homo sapiens, UniProt P51679); assay: Chemokine receptor panel (assays similar to Example 1 and 2), CCR4; format: binding
T3 sequence (P51679 1-360): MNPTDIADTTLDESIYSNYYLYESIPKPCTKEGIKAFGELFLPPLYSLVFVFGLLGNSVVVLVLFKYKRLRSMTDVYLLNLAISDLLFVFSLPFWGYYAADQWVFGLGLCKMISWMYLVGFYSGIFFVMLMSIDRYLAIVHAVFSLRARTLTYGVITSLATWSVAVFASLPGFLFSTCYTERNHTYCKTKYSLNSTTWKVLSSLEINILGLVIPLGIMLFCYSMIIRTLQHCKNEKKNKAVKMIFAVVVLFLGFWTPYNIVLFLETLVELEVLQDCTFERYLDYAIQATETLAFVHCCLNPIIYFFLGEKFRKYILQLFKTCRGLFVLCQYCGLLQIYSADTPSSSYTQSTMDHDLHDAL
Description: as §1, §2

CCR5 = CCR5 (Homo sapiens, UniProt P51681); assay: Chemokine receptor panel (assays similar to Example 1 and 2), CCR5; format: binding; conditions: read-out: Inhibition at 10 uM
Description: as §1, §2

CCR2b = molecular target: T4, CCR2b (Homo sapiens, UniProt P41597); assay: Chemokine receptor panel (assays similar to Example 1 and 2), CCR2b; format: binding
T4 sequence (P41597 1-360 isoform P41597-2): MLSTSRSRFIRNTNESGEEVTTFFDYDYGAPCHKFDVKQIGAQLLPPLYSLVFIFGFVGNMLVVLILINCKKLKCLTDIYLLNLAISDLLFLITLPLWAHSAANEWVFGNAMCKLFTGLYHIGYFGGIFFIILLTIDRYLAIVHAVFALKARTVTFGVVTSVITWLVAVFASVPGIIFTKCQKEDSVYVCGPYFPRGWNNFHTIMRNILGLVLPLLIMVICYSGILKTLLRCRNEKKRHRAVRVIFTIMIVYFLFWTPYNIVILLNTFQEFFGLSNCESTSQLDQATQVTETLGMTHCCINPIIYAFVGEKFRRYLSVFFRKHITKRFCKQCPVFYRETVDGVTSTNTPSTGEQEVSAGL

SMILES: CC[C@H](CO)Nc1nc(SCc2ccccc2)nc2[nH]c(=O)sc12 [Compound F]
- inhibition at 10 µM (CCR1): 46%
- IC50 (CX3CR1): 1000 nM
- IC50 (CCR7): 2000 nM
- IC50 (CXCR2): 20 nM
- IC50 (CCR4): 3980 nM
- inhibition at 10 µM (CCR5): 100%
- IC50 (CCR2b): 398 nM

Source: patent US20090305321A1, “Assays for Allosteric Modulators of G-Protein Coupled Receptors (GPCRs)” (ASTRAZENECA AB, priority 2005, published 2009)
